BindingDB's records for doi:10.1111/j.1476-5381.1995.tb14977.x (Syntex Discovery Research, 1995)
Where “and” joins values, the source holds several entries; their conditions need not be identical. Equal entries are not always repeated.

The chains behind the UniProt entries cited, without tags or fusion partners. Where a name states a change or a piece, a line headed by the entry shows the natural chain unless it says otherwise.
UniProt P14842, whole entry: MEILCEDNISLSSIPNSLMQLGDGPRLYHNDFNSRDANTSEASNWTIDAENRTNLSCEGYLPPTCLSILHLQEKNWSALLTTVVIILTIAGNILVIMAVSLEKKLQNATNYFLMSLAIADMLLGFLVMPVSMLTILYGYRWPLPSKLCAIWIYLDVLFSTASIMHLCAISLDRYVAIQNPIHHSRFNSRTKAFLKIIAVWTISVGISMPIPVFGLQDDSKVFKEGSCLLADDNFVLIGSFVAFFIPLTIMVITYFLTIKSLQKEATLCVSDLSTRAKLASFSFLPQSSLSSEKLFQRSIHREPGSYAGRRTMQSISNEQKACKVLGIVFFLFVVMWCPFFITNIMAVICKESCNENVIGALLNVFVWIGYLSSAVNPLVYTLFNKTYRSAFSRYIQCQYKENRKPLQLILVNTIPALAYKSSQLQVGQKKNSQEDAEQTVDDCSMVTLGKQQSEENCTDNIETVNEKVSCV
UniProt P30994, whole entry: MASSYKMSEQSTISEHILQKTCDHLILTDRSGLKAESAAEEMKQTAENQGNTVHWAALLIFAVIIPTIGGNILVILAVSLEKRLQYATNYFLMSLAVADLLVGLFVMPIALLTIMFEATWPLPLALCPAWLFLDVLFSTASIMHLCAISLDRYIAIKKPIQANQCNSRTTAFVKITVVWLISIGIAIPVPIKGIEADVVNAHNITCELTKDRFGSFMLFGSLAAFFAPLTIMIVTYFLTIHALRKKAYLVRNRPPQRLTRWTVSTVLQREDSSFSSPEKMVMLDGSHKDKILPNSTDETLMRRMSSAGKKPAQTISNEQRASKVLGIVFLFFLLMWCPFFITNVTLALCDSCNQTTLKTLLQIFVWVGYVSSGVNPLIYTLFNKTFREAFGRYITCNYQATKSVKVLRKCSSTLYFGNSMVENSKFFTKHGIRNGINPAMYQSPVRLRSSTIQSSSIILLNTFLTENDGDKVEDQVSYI
UniProt P28335: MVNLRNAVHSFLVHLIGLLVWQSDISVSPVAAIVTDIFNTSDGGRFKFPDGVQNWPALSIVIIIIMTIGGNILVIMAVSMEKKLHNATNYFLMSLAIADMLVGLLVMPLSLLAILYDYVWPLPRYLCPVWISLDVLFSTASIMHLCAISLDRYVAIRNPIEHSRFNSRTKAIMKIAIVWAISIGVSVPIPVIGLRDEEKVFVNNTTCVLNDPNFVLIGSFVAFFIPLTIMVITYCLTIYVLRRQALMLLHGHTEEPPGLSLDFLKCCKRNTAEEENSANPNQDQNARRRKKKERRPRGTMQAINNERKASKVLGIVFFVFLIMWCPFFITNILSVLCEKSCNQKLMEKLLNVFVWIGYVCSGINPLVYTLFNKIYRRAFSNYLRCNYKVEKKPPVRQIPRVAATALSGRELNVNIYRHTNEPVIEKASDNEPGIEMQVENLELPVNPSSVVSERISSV
UniProt P28223, whole entry: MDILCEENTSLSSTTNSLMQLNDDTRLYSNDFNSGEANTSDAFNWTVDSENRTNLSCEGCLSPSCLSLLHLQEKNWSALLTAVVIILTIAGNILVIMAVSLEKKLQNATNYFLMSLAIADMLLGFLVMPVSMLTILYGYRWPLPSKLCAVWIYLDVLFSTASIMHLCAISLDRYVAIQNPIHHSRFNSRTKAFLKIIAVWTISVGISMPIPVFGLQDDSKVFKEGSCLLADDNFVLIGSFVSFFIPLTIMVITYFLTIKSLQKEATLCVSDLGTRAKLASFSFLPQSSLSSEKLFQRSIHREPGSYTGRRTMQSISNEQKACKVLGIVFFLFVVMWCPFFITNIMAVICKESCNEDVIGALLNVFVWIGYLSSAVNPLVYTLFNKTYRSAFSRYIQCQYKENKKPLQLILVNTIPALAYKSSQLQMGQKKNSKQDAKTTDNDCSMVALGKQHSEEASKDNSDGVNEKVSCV
UniProt P41595, whole entry: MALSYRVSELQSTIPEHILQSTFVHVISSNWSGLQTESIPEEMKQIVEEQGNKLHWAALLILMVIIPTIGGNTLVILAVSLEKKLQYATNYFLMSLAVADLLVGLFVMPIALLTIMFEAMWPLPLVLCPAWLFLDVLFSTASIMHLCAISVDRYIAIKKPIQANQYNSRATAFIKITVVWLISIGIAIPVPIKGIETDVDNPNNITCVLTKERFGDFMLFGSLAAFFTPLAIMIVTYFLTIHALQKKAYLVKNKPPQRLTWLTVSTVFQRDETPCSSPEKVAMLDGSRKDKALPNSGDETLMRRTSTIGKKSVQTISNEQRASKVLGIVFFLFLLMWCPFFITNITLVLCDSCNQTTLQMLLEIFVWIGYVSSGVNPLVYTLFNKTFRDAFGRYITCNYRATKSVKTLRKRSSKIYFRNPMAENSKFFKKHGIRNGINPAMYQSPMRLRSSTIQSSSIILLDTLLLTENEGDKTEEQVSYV

Tests used:
[1] = molecular target: 5-hydroxytryptamine receptor 2A (Rattus norvegicus, UniProt P14842)
[2] = molecular target: T1, 5-hydroxytryptamine receptor 2C (Rattus norvegicus, UniProt P08909)
T1 sequence (P08909 whole entry): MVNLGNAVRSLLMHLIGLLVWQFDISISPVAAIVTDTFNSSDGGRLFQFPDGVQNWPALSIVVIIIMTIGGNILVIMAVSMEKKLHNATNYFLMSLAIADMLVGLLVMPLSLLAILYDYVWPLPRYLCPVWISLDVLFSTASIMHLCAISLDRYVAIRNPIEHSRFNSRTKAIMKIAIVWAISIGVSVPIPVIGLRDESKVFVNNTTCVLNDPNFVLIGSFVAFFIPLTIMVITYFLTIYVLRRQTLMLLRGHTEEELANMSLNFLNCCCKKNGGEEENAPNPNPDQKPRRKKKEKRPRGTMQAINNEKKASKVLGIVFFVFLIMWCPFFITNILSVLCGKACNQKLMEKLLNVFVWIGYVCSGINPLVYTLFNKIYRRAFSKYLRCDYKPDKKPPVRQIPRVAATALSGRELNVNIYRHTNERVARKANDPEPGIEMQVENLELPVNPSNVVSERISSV

[3] = molecular target: 5-hydroxytryptamine receptor 2B (Rattus norvegicus, UniProt P30994)
[4] = molecular target: 5-hydroxytryptamine receptor 2C (Homo sapiens, UniProt P28335)
[5] = molecular target: 5-hydroxytryptamine receptor 2A (Homo sapiens, UniProt P28223)
[6] = molecular target: 5-hydroxytryptamine receptor 2B (Homo sapiens, UniProt P41595)

## O=C(CCCN1CCC2(CC1)C(=O)NCN2c1ccccc1)c1ccc(F)cc1 [8-[4-(4-fluorophenyl)-4-oxidanylidene-butyl]-1-phenyl-1,3,8-triazaspiro[4.5]decan-4-one]
[1]
  Ki: 0.31 nM
[2]
  Ki: 794 nM
[3]
  Ki: 3160 nM

## COC(=O)[C@@H]1[C@H]2C[C@H]3c4[nH]c5ccccc5c4CCN3C[C@@H]2CC[C@@H]1O [yohimbic acid methyl ester]
[4]
  Ki: > 10000 nM

## Clc1cccc(N2CCNCC2)c1 [mCPP]
[5]
  Ki: 398 nM and 50.1 nM
[6]
  Ki: 31.6 nM
[4]
  Ki: 251 nM
